Test results taken from patent US20240009204A1 (Starton Therapeutics, Inc., priority 2020, published 2024).

Columns and labels:
[1] = 4 mg a day minimum dose equivalent
[2] = tested on: healthy female volunteers

## Cc1cc2c(s1)Nc1ccccc1N=C2N1CCN(C)CC1 [olanzapine, 2-methyl-10-(4-methyl-1-piperazinyl)-4H-thieno-[2,3-b][1.5]benzo-diazepine]
[1]
  target steady state blood level (mid-point of range): 13 µg/L
[2]; all oral doses (2, 4, 6, 8 mg), 1=no sedation, 10=severe sedation
  Sedation severity scores on day 1, versus placebo: significantly different (higher sedation) than placebo
[2]; oral 2-8 mg a day
  dose dependence of sedation in the first day of dosing: NOT dose dependent
